Experimental data: ChEMBL document CHEMBL2074487, “Effects of 12 Ca2+ antagonists on multidrug resistance, MDR1-mediated transport and MDR1 mRNA expression” (Eur J Pharm Sci, 2002)

Target: ATP-dependent translocase ABCB1 (Homo sapiens, UniProt P08183)
Assay: TP_TRANSPORTER: inhibition of Digoxin transepithelial transport (basal to apical) (Digoxin: 0.1 uM) in MDR1-expressing LLC-PK1 cells
Type: functional, cell-based

- IC50: 4.54 µM
SMILES: COC(=O)C1=C(C)NC(C)=C(C(=O)OCCN(C)Cc2ccccc2)C1c1cccc([N+](=O)[O-])c1 (stereo unspecified) [NICARDIPINE]
